For data set [1], the system named is Na -Durchlässigkeit der Membrane des Ranvier-Schnürringes. As to the kind of experiment: Na+ permeability of the node of Ranvier membrane, voltage clamp. Further details: species or system Frosches.
In data set [2] the test system is durch Skopolamin hervorgerufene Amnesie. Nature of the data set: Dark avoidance assay (passive avoidance), scopolamine-induced amnesia. The data set is classed as in vivo, Mäusen. Particulars: for Einfluß auf das Gedächtnis: Zahl der Tiere in %, bei denen die Skopolaminwirkung aufgehoben wurde: mice, compound s.c. 5 min before learning, Skopolamin i.p. 30 min before; for antiamnestische Wirkung: in words, compared with Amyridin.

Amino acid sequences for entries named in this document (tags omitted). Residues count along the entry.
UniProt P22303, 32-617 isoform 2 limits assumed: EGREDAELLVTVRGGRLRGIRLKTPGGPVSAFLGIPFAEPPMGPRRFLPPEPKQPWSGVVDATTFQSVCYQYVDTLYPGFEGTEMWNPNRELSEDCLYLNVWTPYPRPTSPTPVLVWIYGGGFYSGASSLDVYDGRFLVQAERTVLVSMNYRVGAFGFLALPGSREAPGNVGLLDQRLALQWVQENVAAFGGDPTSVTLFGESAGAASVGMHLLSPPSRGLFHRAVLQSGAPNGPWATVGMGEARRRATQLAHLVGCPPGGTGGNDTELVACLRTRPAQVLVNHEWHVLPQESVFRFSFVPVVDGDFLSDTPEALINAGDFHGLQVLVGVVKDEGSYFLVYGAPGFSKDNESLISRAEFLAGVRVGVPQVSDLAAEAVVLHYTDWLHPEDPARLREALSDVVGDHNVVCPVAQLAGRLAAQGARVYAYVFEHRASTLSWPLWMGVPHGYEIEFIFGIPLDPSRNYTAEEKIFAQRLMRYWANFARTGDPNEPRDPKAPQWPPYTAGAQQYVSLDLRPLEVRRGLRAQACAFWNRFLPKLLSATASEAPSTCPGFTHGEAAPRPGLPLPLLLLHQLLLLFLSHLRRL

Data set [3] deals with K -Durchlässigkeit der Membrane des Ranvier-Schnürringes. As to the kind of experiment: K+ permeability of the node of Ranvier membrane, voltage clamp. More on the design: species or system Frosches.
A short description of data set [4]: Acute toxicity, single intraperitoneal injection, probit analysis (LD50). Particulars: mice, i.p.
The nature of data set [5]: Side effects and CNS/behaviour: tremor (TD50), sedative and m-cholinomimetic effects. The data set is classed as in vivo. Particulars: for Verhältnis TD50 zu ED50: ED50 = dose blocking the effect of Skopolamin in 50 % of the animals (passive avoidance, mice); for TD50 (Tremor): toxic dose causing tremor in 50 % of the animals.
The target in data set [6] is Acetylcholinesterase menschlicher Erythrozyten (Homo sapiens, UniProt P22303). As to the kind of experiment: Acetylcholinesterase inhibition, spectrophotometric. Format: biochemical.
Data set [7] has as its system Nerven-Muskel-Präparat von Mäusen (n.peroneus-m.extensor digitorum longus). Nature of the data set: Neuromuscular transmission in isolated nerve-muscle preparation (EPP, minEPP). The conditions noted are these: for Stimulierung der Nerven-Muskelübertragung, in % der Amplitude: EPP: EPP = Endplattenpotential.
Where [8] appears, read: tested form: hemisulfate monohydrate (2:1 H2SO4).

Read-outs that look alike come from different tables or passages of the source.

As a reminder, the LD50 is the dose at which mortality reaches 50%. A low value points to greater toxicity.

For `CCc1nc2c(c(N)c1C)CCC2`, in data set [1] (read-out: Blockierung der Na^+-Durchlässigkeit der Membrane Ic50 (Mol), frog sciatic nerve fibres, concentration giving 50 % block of ion permeability, tested form: hemisulfate monohydrate (2:1 H2SO4)), the IC50 worked out at 330 µM. Further, the “Einfluß auf das Gedächtnis: Zahl der Tiere in %, bei denen die Skopolaminwirkung aufgehoben wurde” value in data set [2] (setting [8]) was 70%. In data set [3] (read-out: Blockierung der K^+-Durchlässigkeit der Membrane Ic50 (Mol), frog sciatic nerve fibres, concentration giving 50 % block of ion permeability, tested form: hemisulfate monohydrate (2:1 H2SO4)), the IC50 was 300 µM. Moreover, the LD50 in data set [4] (setting [8]) is given as 40 mg/kg. In data set [5] (setting [8]), the Verhältnis TD50 zu ED50 was found to be 12 and the “TD50 (Tremor)” value worked out at 23 mg/kg. Further, the Ki in data set [6] (read-out: Acetylcholinesteraseinhibierung bei menschlichen Erythrozyten IK, (Mol), human erythrocyte enzyme, tested form: hemisulfate monohydrate (2:1 H2SO4)) was 4.7 µM. Moreover, in data set [7] (setting [8]), the “Stimulierung der Nerven-Muskelübertragung, in % der Amplitude: EPP” value was 28% and the “Stimulierung der Nerven-Muskelübertragung, in % der Amplitude: minEPP” value is on record as 50%.
As for `CCCCc1nc2c(c(N)c1C)CCC2`, the “antiamnestische Wirkung” value in data set [2] (tested form: hydrate) is listed as “antiamnestische Wirkung, welche die von Amyridin etwas übertraf”. Besides, the “Einfluß auf das Gedächtnis: Zahl der Tiere in %, bei denen die Skopolaminwirkung aufgehoben wurde” value in data set [2] (tested form: HCl.H2O) is given as 68%; in data set [2] (tested form: hydrate), 65%. The LD50 in data set [4] (tested form: HCl.H2O) worked out at 17 mg/kg; in data set [4] (tested form: hydrate), 15 mg/kg. In addition, the values for the Verhältnis TD50 zu ED50 in data set [5] (tested form: HCl.H2O) and in data set [5] (tested form: hydrate) were 2.2 and 1.8, respectively. Moreover, the “TD50 (Tremor)” value in data set [5] (tested form: HCl.H2O) is given as 6 mg/kg; in data set [5] (tested form: hydrate), 5 mg/kg. Further, the Ki in data set [6] (read-out: Acetylcholinesteraseinhibierung bei menschlichen Erythrozyten IK, (Mol), human erythrocyte enzyme, tested form: HCl.H2O) came out at 6.5 µM; in data set [6] (read-out: Acetylcholinesteraseinhibierung bei menschlichen Erythrozyten IK, (Mol), human erythrocyte enzyme, tested form: hydrate), 6.7 µM. Besides, the “Stimulierung der Nerven-Muskelübertragung, in % der Amplitude: EPP” value in data set [7] (tested form: HCl.H2O) and in data set [7] (tested form: hydrate) was 18% in each case. Besides, the “Stimulierung der Nerven-Muskelübertragung, in % der Amplitude: minEPP” value came out at 40% in data set [7] (tested form: HCl.H2O) and 38% in data set [7] (tested form: hydrate).
As for `CCCCc1c(C)nc2c(c1N)CCC2`, the IC50 amounted to 8500 µM in data set [1] (read-out: Blockierung der Na^+-Durchlässigkeit der Membrane Ic50 (Mol), frog sciatic nerve fibres, concentration giving 50 % block of ion permeability, tested form: HCl) and 8000 µM in data set [3] (read-out: Blockierung der K^+-Durchlässigkeit der Membrane Ic50 (Mol), frog sciatic nerve fibres, concentration giving 50 % block of ion permeability, tested form: HCl). Also, the “antiamnestische Wirkung” value in data set [2] (tested form: hydrate) is reported as “antiamnestische Wirkung, welche die von Amyridin etwas übertraf”. The “Einfluß auf das Gedächtnis: Zahl der Tiere in %, bei denen die Skopolaminwirkung aufgehoben wurde” value is recorded as 70% in data set [2] (tested form: HCl) and 65% in data set [2] (tested form: hydrate). Also, the LD50 in data set [4] (tested form: HCl) worked out at 26 mg/kg; in data set [4] (tested form: hydrate), 25 mg/kg. Further, the Verhältnis TD50 zu ED50 in data set [5] (tested form: HCl) was 4; in data set [5] (tested form: hydrate), 3.5. For the same compound, the “TD50 (Tremor)” value in data set [5] (tested form: HCl) was determined as 11 mg/kg; in data set [5] (tested form: hydrate), 13 mg/kg. For the same compound, the Ki in data set [6] (read-out: Acetylcholinesteraseinhibierung bei menschlichen Erythrozyten IK, (Mol), human erythrocyte enzyme, tested form: HCl) worked out at 15 µM. Besides, the entries for the “Stimulierung der Nerven-Muskelübertragung, in % der Amplitude: EPP” value in data set [7] (tested form: HCl) and in data set [7] (tested form: hydrate) were 20% and 22%, respectively. Besides, the “Stimulierung der Nerven-Muskelübertragung, in % der Amplitude: minEPP” value came to 45% in data set [7] (tested form: HCl) and 46% in data set [7] (tested form: hydrate).

The values above are taken from EP0326134A1, “4-Amino-2,3-disubstituted-6,7-dihydro-5H-1-pyridine derivatives, process for their preparation and medicaments containing them” (NAUCHNO-ISSLEDOVATELSKY INSTITUT TEKHNOLOGII I BEZOPASNOSTI …, priority 1988, dated 1989).
